Measurements: PubChem BioAssay (NCI)
Several values for one entry are separate records, joined by “and”; a condition that tells them apart may be missing. Equal values may be shown once. Only a part is listed here, and it is no random draw. Where a structure was tested more than once in an assay, its records may differ in their call. Activity calls are given as the source filed them. Rule as the data show it: active = growth inhibition above about 70%; inactive = the rest.

How the values were obtained:
[1] = NCI Yeast Anticancer Drug Screen. Data for the rad50 strain (AID 155);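 also: 0% = growth of vehicle-only cultures of the same strain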; conditions: S. cerevisiae rad50 strain growth inhibition, stronger effect = higher value
[2] = NCI Yeast Anticancer Drug Screen. Data for the mec2-1 strain (AID 157); conditions: S. cerevisiae mec2-1 strain, stronger effect = higher value
[3] = NCI Yeast Anticancer Drug Screen. Data for the sgs1 mgt1 strain (AID 161);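 also: 0% = growth of cultures given vehicle only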; conditions: S. cerevisiae sgs1 mgt1 strain, stronger effect = higher value
[4] = NCI Yeast Anticancer Drug Screen. Data for the cln2 rad14 strain (AID 165);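 also: 0% = growth equal to vehicle treated cultures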; conditions: S. cerevisiae cln2 rad14 strain, stronger effect = higher value
[5] = NCI Yeast Anticancer Drug Screen. Data for the bub3 strain (AID 167); conditions: S. cerevisiae bub3 mutant strain, stronger effect = higher value
[6] = NCI Yeast Anticancer Drug Screen. Data for the mlh1 rad18 strain (AID 175); conditions: S. cerevisiae mlh1 rad18 strain growth inhibition, stronger effect = higher value
[7] = at 5.0 µM (retest, dose inferred, filed as 0.5)
[8] = at 50.0 µM (retest, dose inferred, filed as 5.0)

SMILES	growth inhibition [1, 7]	growth inhibition [1, 8]	growth inhibition ([1]; at 50.0 µM)	growth inhibition [2, 7]	growth inhibition [2, 8]	growth inhibition ([2]; at 50.0 µM)	growth inhibition [3, 7]	growth inhibition [3, 8]	growth inhibition ([3]; at 50.0 µM)	growth inhibition [4, 7]	growth inhibition [4, 8]	growth inhibition ([4]; at 50.0 µM)	growth inhibition [5, 7]	growth inhibition [5, 8]	growth inhibition ([5]; at 50.0 µM)	growth inhibition [6, 7]	growth inhibition [6, 8]	growth inhibition ([6]; at 50.0 µM)
Clc1ccc(SC(Cl)C(Cl)Cl)cc1 (centres undefined)	inactive: -3%	active: 98%	active: 97.8%	inactive: -2%	active: 98%	active: 96.1%	inactive: 5%	active: 98%	active: 97.3%	inactive: -7%	active: 91%	active: 70.5%	inactive: -6%	active: 98%	active: 96%	inactive: -1%	active: 98%	active: 96.2%
COc1cc([N+](=O)[O-])c(Nc2ccc(Cl)cc2[N+](=O)[O-])c([N+](=O)[O-])c1	inactive: 33%	active: 82%	active: 88.9%	inactive: 13%	inactive: 61%	active: 71%	inactive: 23%	active: 71%	active: 85.3%	inactive: 6%	inactive: 66%	inactive: 69.4%	inactive: 19%	inactive: 54%	active: 77.2%	inactive: 6%	active: 86%	active: 90.9%
O=C(CO)Nc1ccc([As](=O)(O)O)cc1	inactive: -13%	inactive: -3%	inactive: -30.1%	inactive: 4%	inactive: 2%	inactive: -22.9%	inactive: -2%	inactive: -9%	inactive: -22.4%	inactive: 12%	inactive: -15%	inactive: 44.9%	inactive: -6%	inactive: 4%	inactive: -57.5%	inactive: 3%	inactive: 5%	inactive: -3.2%
O=[N+]([O-])c1cc(C(c2cc([N+](=O)[O-])c(Cl)c([N+](=O)[O-])c2)C(Cl)(Cl)Cl)cc([N+](=O)[O-])c1Cl	active: 98%	active: 88%	inactive: 5.05%	active: 99%	active: 93%	inactive: 45.8%	active: 99%	active: 92%	inactive: 20.9%	active: 98%	active: 88%	inactive: 15.5%	active: 98%	active: 91%	active: 96.5%	active: 98%	active: 92%	inactive: 65.2%
COc1ccc2c(C)c3cccc[n+]3cc2c1	active: 75%	active: 88%	inactive: 14.6%	inactive: 59%	active: 88%	inactive: 3.7%	active: 74%	active: 90%	inactive: 12.7%	inactive: 54%	active: 81%	inactive: 4.55%	inactive: 57%	active: 86%	inactive: 37.6%	inactive: 54%	active: 82%	inactive: 3.6%
O=[N+]([O-])c1ccc(N/N=C(/C=N/Nc2ccc([N+](=O)[O-])cc2[N+](=O)[O-])C(O)C(O)CO)c([N+](=O)[O-])c1 (centres undefined)	inactive: 5%	inactive: 15%	inactive: 29.9%	inactive: 10%	inactive: 33%	inactive: 18.2%	inactive: -13%	inactive: 50%	active: 72.2%	inactive: -12%	inactive: -14%	inactive: 4.25%	inactive: -6%	inactive: 13%	inactive: 3.95%	inactive: 9%	inactive: 60%	inactive: 36.9%
O=P1(N(CCCl)CCCl)NCC(CO)O1 (centres undefined)	inactive: 48%	active: 95%	active: 87.8% and inactive: -5.1%	inactive: 18%	active: 93%	inactive: 27.5% and inactive: 7.5%	inactive: 30%	active: 93%	active: 76.2% and inactive: -6.55%	inactive: 6%	active: 84%	inactive: 15.7% and inactive: -31.6%	inactive: 44%	active: 95%	inactive: 55.1% and inactive: 7.35%	inactive: 42%	active: 95%	inactive: 46% and inactive: 15%
[N-]=[N+]=Nc1ccccc1[N+](=O)[O-]	inactive: 63%	active: 99%	active: 99%	inactive: 36%	active: 99%	inactive: 55.8%	inactive: 50%	active: 99%	inactive: 49.6%	inactive: 31%	active: 100%	active: 98.3%	inactive: 51%	active: 99%	active: 98.8%	active: 72%	active: 99%	inactive: 52.6%
Cc1cccc2cc3cccc(C)c3nc12	inactive: 20%	active: 73%	inactive: 68.2%	inactive: 26%	active: 81%	inactive: 27.1%	inactive: 25%	inactive: 47%	inactive: 63.4%	inactive: 5%	inactive: 33%	inactive: 13.8%	inactive: 20%	active: 85%	inactive: 58.2%	inactive: 38%	active: 85%	inactive: 68%
COC(CCOP(N)(=O)N(CCCl)CCCl)OC (centres undefined)	inactive: 1%	inactive: 51%	inactive: -2.65%	inactive: 2%	inactive: 20%	inactive: 11.9%	inactive: 0%	inactive: 16%	inactive: -1.8%	inactive: 0%	inactive: 38%	inactive: 45.4%	inactive: -5%	inactive: 8%	inactive: 10.5%	inactive: -4%	inactive: 2%	inactive: 19.8%
CCN(CC)CC(c1ccccc1)C1(O)CCCCC1 (centres undefined)	inactive: 0%	inactive: -2%	inactive: 19.8%	inactive: 2%	inactive: 7%	inactive: 12.6%	inactive: -3%	inactive: 13%	inactive: 42.4%	inactive: 1%	inactive: 10%	inactive: 67%	inactive: 0%	inactive: 7%	inactive: -0.25%	inactive: 3%	inactive: 6%	inactive: 19.3%
COc1cc([N+](=O)[O-])cc([N+](=O)[O-])c1	inactive: 10%	inactive: 62%	inactive: 58.6%	inactive: 7%	inactive: 46%	inactive: 20.4%	inactive: 1%	inactive: 32%	active: 85.5%	inactive: 11%	inactive: 15%	inactive: -19.9%	inactive: 11%	inactive: 65%	active: 70.2%	inactive: 9%	inactive: 41%	active: 75.5%
Cc1ccc(N2CC=C(c3ccc(Cl)cc3Cl)OP2(=O)Cl)cc1 (centres undefined)	inactive: 8%	active: 97%	active: 96.5%	inactive: -13%	active: 88%	active: 98.1%	inactive: 3%	active: 94%	active: 95%	inactive: -5%	active: 85%	active: 90.4%	inactive: -6%	active: 93%	active: 96.3%	inactive: 1%	active: 94%	active: 97.8%
CC(C)(C)NCCSP(=S)(c1ccccc1)c1ccccc1	inactive: 21%	active: 94%	inactive: 30.4%	inactive: 2%	inactive: 41%	inactive: 15.2%	inactive: 9%	active: 88%	inactive: 54.1%	inactive: 0%	inactive: 49%	inactive: 7.4%	inactive: 5%	inactive: 67%	active: 71.8%	inactive: 16%	active: 88%	inactive: 55%
[N-]=[N+]=NC(=O)c1cccc([N+](=O)[O-])c1	inactive: 14%	active: 83%	active: 80.7%	inactive: 0%	inactive: 51%	inactive: 56%	inactive: 0%	inactive: 55%	inactive: 39.5%	inactive: -4%	inactive: 36%	inactive: 23.5%	inactive: 4%	active: 75%	inactive: 37.9%	inactive: 5%	active: 76%	inactive: 28%
O=[N+]([O-])C(/C=C(/Cl)[N+](=O)[O-])=C(Cl)Cl	inactive: 13%	active: 99%	active: 87.3%	inactive: 15%	active: 100%	active: 87.7%	inactive: -8%	active: 99%	active: 89.5%	inactive: -7%	active: 99%	active: 89.3%	inactive: -18%	active: 100%	active: 91.7%	inactive: -13%	active: 99%	active: 85.4%
O=C(c1cc([N+](=O)[O-])cc([N+](=O)[O-])c1)c1cc([N+](=O)[O-])cc([N+](=O)[O-])c1	inactive: 12%	active: 94%	inactive: 13.4%	inactive: 13%	active: 97%	inactive: 31.6%	inactive: 12%	active: 97%	inactive: 53.4%	inactive: -2%	active: 93%	inactive: 0.45%	inactive: 17%	active: 94%	inactive: 18.4%	inactive: 14%	active: 95%	inactive: 46.8%
N#CSc1ccc([N+](=O)[O-])cc1[N+](=O)[O-]	active: 91%	active: 99%	active: 99.2%	inactive: 61%	active: 100%	active: 99.4%	active: 95%	active: 99%	active: 99.8%	inactive: 47%	active: 99%	active: 80.1%	active: 76%	active: 99%	active: 99.3%	active: 81%	active: 98%	active: 99.2%
